Assay results: US20060194819A1, “Activation specific inhibitors of nf-kb and method of treating inflammatory processes in cardio-vascular diseases” (PROCORDE GMBH, priority 2003, published 2006)

Key:
[1] = tested on: I KappaB alpha phosphorylation; test: P-IkBalpha detection in Western blot of HeLa cell lysates after TNF alpha stimulation; details: HeLa cells
Description: P-IkBα Detektion in Western-Blot Protocol: HeLa cells were maintained in Dulbecco's modified Eagle's medium (Invitrogen) supplemented with 10% fetal bovine serum, 2 mM L-glutamine, penicillin (50 units/ml) and streptomycin (50 μg/ml). 24 h before treatment with different compounds HeLa cells were plated at a density of 5×10^6 per well in 100-mm cell culture dishes to 90% confluences.
The cells were incubated with different drugs at the concentration indicated for 1 h, washed twice with PBS and stimulated with 20 ng/ml TNF alpha (Roche). After 7 min the cells were washed twice with ice cold PBS followed by scraping and transferring into a 1.5 ml micro centrifuge tube. After centrifugation by 2000 rpm for 2 min by 4° C. the PBS supernatant was removed and 200 μl lysis-buffer (10 mM Hepes, pH 7.9, 0.1% NP40, 10 mM, 300 mM Sucrose, 10 mM KCl, 15 mM MgCl2, 1 mM DTT, 0.5 mM PMSF and antipain, aprotinin, leupeptin each 0.75 μg/ml (Sigma) was added to the pellet. The resuspended pellet was incubated on ice for 5 min and centrifuged at 13000 g for 30 s. 30 μl of the supernatant, cytosolic extract, was diluted with Laemmli-buffer (2% SDS, 2% 2-Mercaptoethanol, 0.01% Bromophenol blue, 8% Glycerine), heated by 60° C. for 10 min and loaded to a 4-20% polyacrylamid gels (BioRad). After electrophoresis the proteins were transferred to a nitrocellulose membrane using the wet blotting technique. […]

NF-kappaB = test: Electrophoretic mobility shift assay (EMSA) for NF-kappaB in LPS stimulated THP-1 monocytic cells; details: THP-1 cells, 100 μM, 1 h, LPS 1 μg/ml
Description: Electrophoretic Mobility Shift Assay (EMSA): THP-1 monocytic cells (DSM, Braunschweig, Germany) were maintained in suspension in RPMI 1640 (Glutamax-1, low endotoxin) containing 7% fetal calf serum (FCS) (Myoclone super plus, low endotoxin), 100 units/ml penicillin, and […] streptomycin (Life Technologies, Inc., Eggenstein, Germany). For the experiments, the cells were plated at a density of 3×10^6 per well in 6-well culture dishes. Nuclear extracts were prepared by harvesting cells by centrifugation at 1200 rpm for 7 min at 4° C. The cells were resuspended by adding 1 ml ice cold PBS and transferred into a microcentrifuge tube. After centrifugation at 2000 g for 2 min by 4° C. the pellet was lysed in 50 μl buffer A (10 mM Hepes, pH 7.9, 0.1% NP40, 10 mM, 300 mM Sucrose, 10 mM KCl, 15 mM MgCl2, 1 mM DTT, 0.5 mM PMSF and antipain, aprotinin, leupeptin each 0.75 μg/ml (Sigma)). […] The binding of Sp-1 and AP-1 was also analysed by EMSA using specific consensus oligonucleotides (Promega, Heidelberg, Germany) that were labeled with [γ-^32P]ATP (>5,000 Ci/mmol, NEN Life Science Products) and T4 polynucleotide kinase (Boehringer Mannheim). Gels were dried and analysed by autoradiography. […]

CCOC(=O)C1=C(C)N=c2sc(=Cc3ccc(-c4cccc(C(=O)O)c4)o3)c(=O)n2C1c1cc(OC)c(OC)cc1Br (stereo not drawn)
effect on IkappaB phosphorylation (Western blot), comparison of COM 73 and COM 54 family ([1]; 10 and 100 μM): concentration-dependently inhibited
inhibition of phosphorylation of IkappaB (Western blot) ([1]; increasing concentrations): dose-dependently inhibited
reduced NF-kappaB-release (NF-kappaB): 80%
